{"source": "paper PMC11862990", "about": "“Utility of 6-aza-2-thiothymine in the synthesis of novel [1,2,4]triazolo[4,3-b][1,2,4]triazin-7-one derivatives: synthesis, structure elucidation, molecular docking and in vitro anti-lung cancer activity” (RSC Advances, 2025)", "system": "lung cancer cell lines (A549)", "experiment": "DNA fragmentation assay (diphenylamine reaction)", "type": "cell-based, human", "method": "The DNA fragmentation assay in lung cancer cell lines was performed in accordance with the protocol established by Yawata (1998)[34] with some modifications. Briefly, the lung cancer cell lines (A549) exposed to different compounds such as PT1, PT7 and Doxorubicin were homogenized in 1 ml of the medium and centrifuged (10 min at 800 rpm). The low-molecular-weight genomic DNA was extracted as described in Yawata (1998).[34] Approximately 1 × 10^6 cells of each treatment were plated. All the cells (including floating cells) were harvested and washed with Dulbecco's phosphate buffered saline. The cancer cells were lysed with the lysis buffer containing 10 mM Tris (pH 7.4), 150 mM NaCl, 5 mM ethylenediaminetetraacetic acid (EDTA), and 0.5% Triton X-100 for 30 min on ice. […] Fragmented DNA in the supernatant was extracted with an equal volume of a neutral phenol : chloroform : isoamyl alcohol mixture (25 : 24 : 1) and analyzed electrophoretically on 2% agarose gels containing 0.1 μg ml^−1 ethidium bromide.\nThe lung cancer cell lines (A549) were used to determine the quantitative profile of the DNA fragmentation. […] The proportion of the fragmented DNA was calculated from the absorbance values at 600 nm wavelength using the formula:% fragmented DNA = [OD(S)/[OD(S) + OD(P)]] × 100(OD: optical density, S: supernatants, P: pellets).", "note": "Marks after values point to notes of the source that are not given here."}
{"smiles": "COc1cccc2c1C(=O)c1c(O)c3c(c(O)c1C2=O)C[C@@](O)(C(=O)CO)C[C@@H]3O[C@H]1C[C@H](N)[C@H](O)[C@H](C)O1", "note": "[Dox, Doxorubicin, reference compound]", "values": [{"measurement": "DNA fragmentation% (M ± SEM)", "setting": "negative control 12.54 ± 0.45", "result": "28.38 ± 1.06^b %"}, {"measurement": "DNA fragmentation% (M ± SEM)", "setting": "negative control 12.54 ± 0.45, listed as doxorubicin", "result": "28.38 ± 1.06", "unit": "%"}]}
